Literature values in article PMC10051989.

The chains behind the UniProt entries cited, without tags or fusion partners. Residues count along the entry.
UniProt P78352, 61-249: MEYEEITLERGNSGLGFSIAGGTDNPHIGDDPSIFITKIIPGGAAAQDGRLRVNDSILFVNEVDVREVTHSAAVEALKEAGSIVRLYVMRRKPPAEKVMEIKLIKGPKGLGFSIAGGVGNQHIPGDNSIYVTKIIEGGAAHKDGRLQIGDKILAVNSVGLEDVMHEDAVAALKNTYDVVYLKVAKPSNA

Biological target: Tat-N-dimer (Tat-NPEG4(IETDV)2)

- Kd: 4.6 nM
Substance: PSD-95 PDZ1-2 (from UniProt P78352)
